Results on 45 compounds are retold here after PubChem BioAssay AID2521 (Sanford-Burnham Center for Chemical Genomics, 2010).

The chains behind the UniProt entries cited, without tags or fusion partners. Where a name states a change or a piece, a line headed by the entry shows the natural chain unless it says otherwise.
UniProt P35414: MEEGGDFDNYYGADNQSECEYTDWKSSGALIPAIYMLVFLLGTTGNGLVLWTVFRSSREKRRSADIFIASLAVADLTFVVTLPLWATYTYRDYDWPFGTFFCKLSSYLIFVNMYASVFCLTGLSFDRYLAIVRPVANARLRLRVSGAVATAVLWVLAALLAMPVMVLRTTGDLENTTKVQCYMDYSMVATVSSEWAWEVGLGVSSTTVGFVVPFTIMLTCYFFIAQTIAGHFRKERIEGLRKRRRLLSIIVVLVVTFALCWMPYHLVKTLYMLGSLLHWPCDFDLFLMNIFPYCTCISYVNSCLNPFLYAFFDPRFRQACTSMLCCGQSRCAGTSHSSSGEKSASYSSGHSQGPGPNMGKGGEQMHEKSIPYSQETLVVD

The structures appear in SMILES notation. Only a part is listed here, and it is no random draw. Activity calls are given as the source filed them.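 How the source made its calls: active means inhibition above about 40% at 20 µM (limit read from the data); inactive means the rest.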

This assay has as its target Apelin receptor (Homo sapiens) (UniProt P35414). In words: blockade of apelin-induced APJ beta-arrestin recruitment – CHO-K1 cells, beta-arrestin complementation, luminescence, primary screen (AID 2521).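 Further: cells challenged with 10 nM apelin-13 agonist together with compound; plate controls were apelin-13 plus DMSO wells for no effect and DMSO wells lacking apelin-13 for full effect.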 Conditions: at 20 µM, hits give high values. For orientation: Recruitment of arrestin is a read-out of receptor activation apart from second messengers.
For orientation: inhibition means the relative decrease from the control value, in per cent. As to `Nc1ccccc1[As](=O)(O)c1ccccc1`, the inhibition was inactive: 0.154%. The result for `O=P(Nc1nccs1)(Oc1ccccc1)Oc1ccccc1` reads inactive: 4.37%; that for `O=P(Nc1nccs1)(c1ccccc1)c1nc2ccccc2s1` (stereo not given), inactive: 28.8%.

As for `CCOP1(=S)c2c(C)nn(CCC#N)c2N=C(c2ccccc2F)N1C` (stereo not given), the inhibition was inactive: 19%.

On to `CS(=O)(=O)c1cc([N+](=O)[O-])c2no[n+]([O-])c2c1`, for which the inhibition was inactive: -36%. For `CN(C(=O)Cc1ccccc1)[C@@H]1CC[C@]2(CCCO2)C[C@H]1N1CCCC1`, the inhibition is inactive: 19.3%. The value for `CCOP1(=S)c2c(C)nn(CCC#N)c2N=C(c2ccc(F)cc2)N1C` (stereo not given) was inactive: 19.5%.

As for `N#CCCN(C(=O)COC(=O)C(O)(c1ccccc1)c1ccccc1)c1ccc(F)cc1`, the inhibition was inactive: 21%. With `CN(C(=O)Cc1ccc(Cl)c(Cl)c1)[C@H]1CC[C@@]2(CCCO2)C[C@@H]1N1CCCC1`, the inhibition is inactive: 9.47%. The value for `O=[N+]([O-])c1ccc2c(c1)nnn2O` was inactive: -1.06%; that for `CN(C)C(=O)c1cc([N+](=O)[O-])cc2c1-c1c(cc([N+](=O)[O-])cc1[N+](=O)[O-])C2=O` was inactive: 26.1%; that for `NC(=O)Nc1ccc([As](=O)(O)O)cc1` was inactive: -0.956%. Turning to `Cc1cccc(OCC(=O)OC2CN3CCC2CC3)c1` (stereo not given), the inhibition is inactive: -7.28%. Consider `O=[As](O)(c1cccc(O)c1)c1cccc(O)c1`, for which the inhibition was inactive: 5.65%. Turning to `O=C(OC1CN2CCC1CC2)c1ccc(Cl)cc1` (stereo not given), the inhibition was inactive: 19.2%. As for `CS(=O)(=O)c1ccc(Cl)c(NC(=O)COC(=O)C(O)(c2ccccc2)c2ccccc2)c1`, the inhibition was inactive: -2.79%. With `O=[As](O)(O)c1cccnc1`, the inhibition was inactive: -13.4%. For the compound `COc1cc(C(=O)NCC2(N3CCOCC3)CCCCC2)cc(Cl)c1OC(C)C`, the inhibition was inactive: 13.7%. The value for `CCOP(=O)(Nc1cccc2ccccc12)OCC` was inactive: 9.61%; that for `COc1cc(C2NCCC3(OCCO3)C2(C)C)cc(OC)c1OC` (stereo not given) was inactive: -3.69%; that for `Cc1ccc(NCCc2c([N+](=O)[O-])cc([N+](=O)[O-])cc2[N+](=O)[O-])cc1` was inactive: -6.16%. The value for `CCCOP(=S)(Nc1nc(N)cc(=O)[nH]1)OCCC` was inactive: 5.3%; that for `CC(C)(C)C(=O)NC(Sc1ncccn1)C(Cl)(Cl)Cl` (stereo not given) was inactive: -24.9%. For `Clc1n[nH]nc1-c1nn[nH][15n]1`, the inhibition is inactive: 2.14%.

On to `CCOP(=O)(NC(=NC(C)c1ccccc1)NC(C)c1ccccc1)OCC` (stereo not given), for which the inhibition is inactive: 9.2%. The value for `CCC1=CC2Cc3nc4ccc(Cl)cc4c(N)c3C(C1)C2` (stereo not given) was inactive: -0.784%. Consider `O=P1(Nc2ccccn2)COc2ccccc2OC1`, for which the inhibition was inactive: -10.6%. The result for `CCOP(=O)(Nc1ccc(C)cn1)OCC` reads inactive: -23.2%; that for `CN(CCCl)Cc1cc(Cl)c(NC2=NCCN2)c(Cl)c1`, inactive: 1.15%. Take `CN(C(=O)Cc1ccc(Cl)c(Cl)c1)[C@@H]1CCCC[C@H]1N1CCCC1`: the inhibition was inactive: 16.5%.

On to `CC(C)/C=N\N=C(\N)N[N+](=O)[O-]`, for which the inhibition is inactive: 2.16%. As for `CC1(CBr)Cn2c(nc3ccccc3c2=O)S1` (stereo not given), the inhibition is inactive: -25.3%. The value for `O=[As](O)(c1ccccc1Br)c1ccccc1Br` was inactive: 14.7%. Consider `COc1ccccc1CNC(=O)COC(=O)C(O)(c1ccccc1)c1ccccc1`, for which the inhibition was inactive: 12%. The result for `CN(C)C1(CNC(=O)c2ccc(S(C)(=O)=O)cc2)CCCCC1` reads inactive: 15.1%. Regarding `O=C(/C=C/c1ccccc1)OC1CN2CCC1CC2` (stereo not given), the inhibition is inactive: 16%. `Cc1ccc(C(=O)OC2CN3CCC2CC3)cc1` (stereo not given): the inhibition is inactive: 20.5%. The value for `CC1CCC(C(C)C)C(OP(=O)(Nc2ccccn2)c2ccccc2)C1` (stereo not given) was inactive: -1.13%; that for `Cc1nn(-c2ccccc2)c2c1P(=O)(N1CCOCC1)N(C)C(c1ccccc1)=N2` (stereo not given) was inactive: 15.4%.

With `Nc1cccc([As](=O)(O)c2ccccc2)c1`, the inhibition is inactive: 16%. The result for `Cc1ccc(OCC(=O)OC2CN3CCC2CC3)cc1` (stereo not given) reads inactive: 7.65%; that for `O=[As](O)(c1cccs1)c1cccs1`, inactive: -13.5%; that for `NS(=O)(=O)c1cccc(NC(=O)COC(=O)C(O)(c2ccccc2)c2ccccc2)c1`, inactive: 4.05%. Regarding `O=P1(Nc2ccc(Br)cn2)COc2ccccc2OC1`, the inhibition was inactive: -1.73%. As to `O=P1(Nc2ncccn2)COc2ccccc2OC1`, the inhibition is inactive: 8.64%.
